According to PMC6454087:

Molecular target: mouse rec1c sNASP variant protein (V281I, L282F) (mouse)
Experiment: BLI; Octet K2, 30 C; sNASP WT or variant immobilised on aminopropylsilane (APS) biosensors, histones in assay buffer at various concentrations (62.5 to 1,000 nM shown for H4), association 240 s; n = 4

Kd: 8.45 nM | kon: 8950 M⁻¹ s⁻¹
Substance: mouse histone H3.1 (from UniProt P68433 1-136) (natural protein)
